The entries are a selection whose mix differs from that of the whole data set. Active and inactive are the calls of the source.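 The calls were made as follows: active = inhibition above 3 SD of the buffer control wells (cut at about 41% in these data); inactive = the rest.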
Experiment: reduced carbachol calcium response, RGS4-induced M3R cells, confirmation, RGS4 activator project, cell-based, HEK293 M3R/RGS4 inducible, calcium flux, duplicate (AID 602282);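 also: signal is the integrated peak-minus-minimum Fluo4 fluorescence over baseline ratio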
Details: carbachol calcium flux Fluo4, at 10 µM, stronger effect = higher value

Q: Which inhibition does the source give for `CN1CCCCC1COC(=O)C1(O)c2ccccc2CCc2ccccc21` (centres undefined) here?
A: active: 93%

Q: For `CCN(CC)CCCOC(=O)C(O)(c1ccccc1)c1ccccc1`, which inhibition is on record?
A: active: 93%

Q: With `O=C(OCCCN1CCCC1)C(O)(c1ccccc1)C1CCCCC1` (centres undefined) as the compound, how does the inhibition read?
A: active: 93%

Q: With `CN(C)CCOC(=O)C(O)(c1ccccc1)C1CCCCC1` (centres undefined) as the compound, how does the inhibition read?
A: active: 93%

From PubChem BioAssay AID602282 (Johns Hopkins Ion Channel Center, 2012)
